# Data published in patent US11530198B2, “Compositions and methods for treating infections” (priority 2016, dated 2022).
# Chains of the proteins cited; added tags and fusions are not shown. Lines headed by an entry give the natural chain unless they say otherwise; changes in a name come on top.
# UniProt P00374: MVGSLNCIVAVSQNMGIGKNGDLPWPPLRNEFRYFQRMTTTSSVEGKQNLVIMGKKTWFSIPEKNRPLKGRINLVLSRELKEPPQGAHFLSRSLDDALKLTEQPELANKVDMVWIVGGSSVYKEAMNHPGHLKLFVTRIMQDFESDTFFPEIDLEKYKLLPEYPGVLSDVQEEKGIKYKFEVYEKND
# Experiments:
# T. gondii DHFR (tgDHFR) = T. gondii DHFR (tgDHFR) (Toxoplasma gondii, UniProt Q07422); conditions: for Average DHFR selectivity (h/tg): hDHFR IC50/tgDHFR IC50
# hDHFR = hDHFR (Homo sapiens (Human), UniProt P00374); experiment: DHFR inhibition assay (diaphorase/resazurin coupled, fluorescence of resorufin), human DHFR; assay type: biochemical; conditions: Table 11
# T. cruzi DHFR (tcDHFR) = T. cruzi DHFR (tcDHFR) (Trypanosoma cruzi, UniProt Q27793); experiment: DHFR inhibition assay (diaphorase/resazurin coupled), T. cruzi DHFR; assay type: biochemical; conditions: hDHFR IC50/tcDHFR IC50
# L. major DHFR (1mDHFR) = L. major DHFR (1mDHFR) (Leishmania major, UniProt P07382); assay type: biochemical; conditions: hDHFR IC50/L. major DHFR IC50
# T. brucei DHFR (tbDHFR) = T. brucei DHFR (tbDHFR) (Trypanosoma brucei brucei, UniProt Q27783); experiment: DHFR inhibition assay (diaphorase/resazurin coupled), T. brucei DHFR; assay type: biochemical
Structure (SMILES),Average DHFR selectivity (h/tg) (T. gondii DHFR (tgDHFR)),other results
"Nc1ncc(N2CCN(c3cccc(-c4ccccc4)c3)CC2)c(N)n1 [Compound 2, 5-(4-([1,1′-biphenyl]-3-yl)piperazin-1-yl)pyrimidine-2,4-diamine]",78.60,"tgDHFR pIC50-DHFR primary assay (T. gondii DHFR (tgDHFR); Table 11, T. gondii DHFR): 8.06; hDHFR pIC50-DHFR primary assay (hDHFR): 6.16"
"Nc1ncc(N2CCN(c3cccc(C(F)(F)F)c3)CC2)c(N)n1 [Compound 3, 5-(4-(3-(trifluoromethyl)phenyl)piperazin-1-yl)pyrimidine-2,4-diamine]",8.71,
"Nc1ncc(N2CCN(c3ccc(Cl)cc3)CC2)c(N)n1 [Compound 6, 5-(4-(4-chlorophenyl)piperazin-1-yl)pyrimidine-2,4-diamine]",23.71,Average DHFR selectivity (h/tc) (T. cruzi DHFR (tcDHFR)): 150; Average DHFR selectivity (h/lm)*-DHFR IC50 (L. major DHFR (1mDHFR)): 65
"Cc1cccc(N2CCN(c3cnc(N)nc3N)CC2)c1 [Compound 7, 5-(4-(m-tolyl)piperazin-1-yl)pyrimidine-2,4-diamine]",79.43,
"Nc1ncc(N2CCN(c3cccc(C4CC4)c3)CC2)c(N)n1 [Compound 66, 5-(4-(3-cyclopropylphenyl)piperazin-1-yl)pyrimidine-2,4-diamine]",56.23,
"Nc1ncc(N2CCN(c3cccc(-c4ccnnc4)c3)CC2)c(N)n1 [Compound 73, 5-(4-(3-(pyridazin-4-yl)phenyl)piperazin-1-yl)pyrimidine-2,4-diamine]",184.08,Average DHFR selectivity (h/lm)*-DHFR IC50 (L. major DHFR (1mDHFR)): 44
"Nc1ncc(N2CCN(c3cccc(-c4cncnc4)c3)CC2)c(N)n1 [Compound 74, 5-(4-(3-(pyrimidin-5-yl)phenyl)piperazin-1-yl)pyrimidine-2,4-diamine]",302.00,Average DHFR selectivity (h/tb)*-DHFR IC50 (T. brucei DHFR (tbDHFR)): 550
"Nc1ncc(N2CCN(c3cccc(-c4ncccn4)c3)CC2)c(N)n1 [Compound 103, 5-(4-(3-(pyrimidin-2-yl)phenyl)piperazin-1-yl)pyrimidine-2,4-diamine]",47.50,
"Nc1ncc(N2CCN(c3cccc(-c4cnccn4)c3)CC2)c(N)n1 [Compound 104, 5-(4-(3-(pyrazin-2-yl)phenyl)piperazin-1-yl)pyrimidine-2,4-diamine]",129.32,
